Results as given in patent US11267861B2, “Peptide-oligourea foldamer compounds and methods of their use” (UREKA SARL, priority 2016, dated 2022).

Experiments:
mouse GLP-1 receptor = target: T1, mouse GLP-1 receptor (Mus musculus, UniProt O35659); assay: GLP-1 functional assay: agonist activity by cAMP production (HTRF) in βTC6 cells; format: cell-based
T1 construct: mouse GLP-1 receptor endogenously expressed in βTC6 cells; endogenous in cells; host or cells: βTC6 cells
T1 sequence (O35659 22-463): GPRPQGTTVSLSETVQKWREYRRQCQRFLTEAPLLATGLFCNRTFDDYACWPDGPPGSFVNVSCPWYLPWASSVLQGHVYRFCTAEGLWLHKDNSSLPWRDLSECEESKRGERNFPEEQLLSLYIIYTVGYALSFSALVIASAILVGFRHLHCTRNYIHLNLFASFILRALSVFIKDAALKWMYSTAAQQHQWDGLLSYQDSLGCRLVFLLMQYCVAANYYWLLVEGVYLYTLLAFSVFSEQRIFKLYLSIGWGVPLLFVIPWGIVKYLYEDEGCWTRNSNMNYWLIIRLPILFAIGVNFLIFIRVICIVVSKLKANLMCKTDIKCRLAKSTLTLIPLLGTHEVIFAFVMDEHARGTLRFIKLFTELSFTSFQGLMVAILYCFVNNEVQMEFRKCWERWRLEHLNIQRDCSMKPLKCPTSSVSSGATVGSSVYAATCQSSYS
Procedure: For stimulated control measurement, separate assay wells contain 10 nM GLP-1(7-37) were utilized.
Following incubation, the cells were lysed and the fluorescence acceptor (D2-labeled cAMP) and fluorescence donor (anti-cAMP antibody labeled with europium cryptate) were added. […] The results are expressed as a percent of the control response to 10 nM GLP-1(7-37). The standard reference agonist is GLP-1(7-37), which was tested in each experiment at several concentrations to generate a concentration-response curve from which its EC50 value was calculated.
HTRF (Homogeneous Time-Resolved Fluorescence) principle. The HTRF technology is based on time resolved fluorescence energy transfer (TR-FRET), which occurs between long-lived fluorophore Europium or Terbium Cryptates, and EuK or Tb respectively, as a donor and the allophycocyanin XL665, d2 or Red as acceptor. Many compounds and proteins present in biological fluids or serum are naturally fluorescent, and the use of conventional, prompt fluorescence leads to serious limitations in assay sensitivity. The use of long-lived fluorophore combined with time-resolved detection (a delay between excitation and emission detection) minimizes prompt fluorescence interference.

chymotrypsin = assay: Enzymatic degradation by chymotrypsin; format: in vitro ADME; conditions: compared to native peptide GLP-1 (SEQ ID NO: 1)
Procedure: Enzymatic Degradation—Chymotrypsin and Trypsin. Stock solutions of the compounds were prepared at a concentration of 400 μM in a solution of 50 mM HEPES buffer, 50 mM NaCl, 0.05% Tween-80, pH 8.0. Stock solution of the chymotrypsin or trypsin was prepared at a concentration of 250 μg/mL in water. Stability of compounds to chymotrypsin was assessed by conducting a protease reaction in a 96-well plates at room temperature. Each well received 10 μL of HEPES buffer, 38 μL of the solution of compound to be assayed (final concentration 304 μmol/L), and 2 μL of the enzyme solution (final concentration 10 μg/mL) for a total volume of 50 μL. Each compound was also incubated in the absence of the enzyme (12 μL of HEPES buffer and 38 μL of the compound).
At the indicated time (5, 10, 15, 30 and 60 minute(s)) a 10 μL aliquot was removed from each experimental reaction and pipet into 100 μL of 1% TFA solution to quench the reaction (t=0 minutes was determined using the reaction without enzyme). A portion of the quenched reaction solution was analyzed by HPLC. The time course of peptide degradation was determined by integrating the area of each peak in a series of HPLC traces. Another portion of the quenched reaction was analyzed by LC-MS for identification of each peptide fragment.

[1] = target: T2, Carboxypeptidase A (EC 3.4.17.1) (Bos taurus, UniProt P00730); assay: Enzymatic degradation by carboxypeptidase A; format: in vitro ADME, bovine; conditions: same results = more stable than the native peptides
T2 construct: from bovine pancreas (Fluka), milky suspension; purchased Fluka; host or cells: bovine pancreas
T2 sequence (P00730 111-419): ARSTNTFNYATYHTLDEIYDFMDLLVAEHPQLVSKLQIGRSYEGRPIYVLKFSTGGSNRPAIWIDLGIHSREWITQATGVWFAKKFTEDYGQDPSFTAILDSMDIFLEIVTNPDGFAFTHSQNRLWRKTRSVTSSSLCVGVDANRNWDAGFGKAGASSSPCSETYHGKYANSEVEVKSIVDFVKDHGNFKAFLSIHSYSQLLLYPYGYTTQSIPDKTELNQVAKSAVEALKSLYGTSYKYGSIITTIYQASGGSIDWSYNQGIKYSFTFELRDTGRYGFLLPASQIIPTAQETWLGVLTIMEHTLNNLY
Procedure: Enzymatic Degradation—Carboxypeptidase A. Carboxypeptidase A (EC 3.4.17.1) from bovine pancreas (Fluka), milky suspension, stock solution in PBS buffer (pH 7.5, 0.01 M). For each degradation experiment, stock solutions of the peptidic substrate and the enzyme were made using phosphate-buffered saline (PBS) buffer solution. The enzyme concentrations of the stock solutions were selected such that the standard substrates were totally degraded after a maximum of 15 min (ratio 2[enzyme]:100[substrate]). PBS buffer solution (10 mM sodium phosphate, 0.14 M NaCl) was prepared as follows: Solution A (4.75 mL of 0.2 M NaH2PO4.H2O), solution B (20.25 mL of 0.2 M Na2HPO4.H2O), NaCl (4.5 g) and H2O (25 mL) were stirred for 15 min at room temperature and diluted tenfold with H2O. The pH was adjusted either with NaOH (1 M) or with HCl (1 M) prior to use. A solution of the substrate in PBS buffer (pH 7.5, 0.01 M) and a solution of the required amount of enzyme, were mixed and incubated at 25° C. for 4 hours. Degradation was stopped with concentrated AcOH, and buffer solution was added so that the total volume reached 150 μL.
(§1) The resulting mixture was analyzed by reversed-phase HPLC. A mixture of CH3CN/H2O (0.1% TFA) was used as eluent. Gradients were 10% CH3CN to 100% CH3CN in 10 minutes. The flow rate, for all separations, was 1 mL·min^−1.

[2] = target: T3, Leucyl aminopeptidase (EC 3.4.11.1) (Sus scrofa, UniProt P28839); assay: Enzymatic degradation by leucyl aminopeptidase; format: in vitro ADME, porcine; conditions: compared to the native peptides
T3 construct: from porcine kidney (Sigma); chromatographically purified suspension; purchased Sigma; host or cells: porcine kidney
T3 sequence (P28839 1-519): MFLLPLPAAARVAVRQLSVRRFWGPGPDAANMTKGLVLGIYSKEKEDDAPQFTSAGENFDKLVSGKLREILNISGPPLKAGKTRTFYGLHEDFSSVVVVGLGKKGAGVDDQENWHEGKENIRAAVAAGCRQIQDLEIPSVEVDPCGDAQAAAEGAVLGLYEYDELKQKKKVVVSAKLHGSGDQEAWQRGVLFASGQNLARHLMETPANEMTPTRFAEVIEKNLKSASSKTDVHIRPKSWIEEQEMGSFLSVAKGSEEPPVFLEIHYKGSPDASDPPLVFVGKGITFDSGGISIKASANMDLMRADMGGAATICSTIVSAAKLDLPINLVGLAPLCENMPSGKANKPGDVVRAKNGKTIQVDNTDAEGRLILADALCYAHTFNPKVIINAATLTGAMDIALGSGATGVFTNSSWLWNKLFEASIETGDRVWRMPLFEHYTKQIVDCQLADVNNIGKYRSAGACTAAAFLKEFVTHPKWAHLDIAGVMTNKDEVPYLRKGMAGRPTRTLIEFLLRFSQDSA
Procedure: Enzymatic Degradation—Leucyl Aminopeptidase. Leucyl aminopeptidase (EC 3.4.11.1) from porcine kidney (Sigma); chromatographically purified suspension in 2.9 M (NH4)2SO4, 0.1 M Tris, 5 mM MgCl2 solution, pH 8.0; stock solution in PBS buffer (pH 7.2, 0.01 M). For each degradation experiment, stock solutions of the peptidic substrate and the enzyme were made using phosphate-buffered saline (PBS) buffer solution. […] The pH was adjusted either with NaOH (1 M) or with HCl (1 M) prior to use. A solution of the substrate in PBS buffer (pH 7.2, 0.01 M) and a solution of the required amount of enzyme, were mixed and incubated at 25° C. for 4 hours. Degradation was stopped with concentrated AcOH, and buffer solution was added so that the total volume reached 150 μL.
as §1

Compound: CC[C@H](C)[C@H](NC(=O)[C@H](Cc1ccccc1)NC(=O)[C@H](CCC(=O)O)NC(=O)[C@H](CCCCN)NC(=O)[C@H](C)NC(=O)[C@H](C)NC(=O)[C@H](CCC(N)=O)NC(=O)CNC(=O)[C@H](CCC(=O)O)NC(=O)[C@H](CC(C)C)NC(=O)[C@H](Cc1ccc(O)cc1)NC(=O)[C@H](CO)NC(=O)[C@H](CO)NC(=O)[C@@H](NC(=O)[C@H](CC(=O)O)NC(=O)[C@H](CO)NC(=O)[C@@H](NC(=O)[C@H](Cc1ccccc1)NC(=O)[C@@H](NC(=O)CNC(=O)[C@H](CCC(=O)O)NC(=O)[C@H](C)NC(=O)[C@@H](N)Cc1c[nH]cn1)[C@@H](C)O)[C@@H](C)O)C(C)C)C(=O)N[C@@H](C)C(=O)N[C@@H](Cc1c[nH]c2ccccc12)C(=O)N[C@@H](CC(C)C)C(=O)N[C@@H](C)CNC(=O)N[C@@H](CCCCN)C(=O)NCC(=O)N[C@@H](CCCNC(=N)N)C(=O)NCC(=O)O [Compound 7]
- EC50 (mouse GLP-1 receptor): 0.22 nM
- half-life in the chymotrypsin degradation test compared to native peptide (chymotrypsin): longer half-life
- stability with carboxipeptidase A compared to native peptides [1]: same results

Compound: CC[C@H](C)[C@H](NC(=O)[C@H](Cc1ccccc1)NC(=O)[C@H](CCC(=O)O)NC(=O)[C@H](CCCCN)NC(=O)[C@H](C)NC(=O)[C@H](C)NC(=O)[C@H](CCC(N)=O)NC(=O)CNC(=O)[C@H](CCC(=O)O)NC(=O)[C@H](CC(C)C)NC(=O)[C@H](Cc1ccc(O)cc1)NC(=O)[C@H](CO)NC(=O)[C@H](CO)NC(=O)[C@@H](NC(=O)[C@H](CC(=O)O)NC(=O)[C@H](CO)NC(=O)[C@@H](NC(=O)[C@H](Cc1ccccc1)NC(=O)[C@@H](NC(=O)CNC(=O)[C@H](CCC(=O)O)NC(=O)[C@H](C)NC(=O)[C@@H](N)Cc1c[nH]cn1)[C@@H](C)O)[C@@H](C)O)C(C)C)C(=O)N[C@@H](C)C(=O)N[C@@H](Cc1c[nH]c2ccccc12)C(=O)N[C@H](CNC(=O)N[C@H](C(=O)N[C@@H](CCCCN)C(=O)NCC(=O)N[C@@H](CCCNC(=N)N)C(=O)NCC(=O)O)C(C)C)CC(C)C [Compound 6]
- EC50 (mouse GLP-1 receptor): 0.21 nM
- half-life in the chymotrypsin degradation test compared to native peptide (chymotrypsin): longer half-life
- stability with carboxipeptidase A compared to native peptides [1]: same results

Compound: CC[C@H](C)[C@H](NC(=O)[C@H](Cc1ccccc1)NC(=O)[C@H](CCC(=O)O)NC(=O)[C@H](CCCCN)NC(=O)[C@H](C)NC(=O)[C@H](C)NC(=O)[C@H](CCC(N)=O)NC(=O)CNC(=O)[C@H](CCC(=O)O)NC(=O)[C@H](CC(C)C)NC(=O)[C@H](Cc1ccc(O)cc1)NC(=O)[C@H](CO)NC(=O)[C@H](CO)NC(=O)[C@@H](NC(=O)[C@H](CC(=O)O)NC(=O)[C@H](CO)NC(=O)[C@@H](NC(=O)[C@H](Cc1ccccc1)NC(=O)[C@@H](NC(=O)CNC(=O)[C@H](CCC(=O)O)NC(=O)[C@H](C)NC(=O)[C@@H](N)Cc1c[nH]cn1)[C@@H](C)O)[C@@H](C)O)C(C)C)C(=O)N[C@@H](C)CNC(=O)N[C@@H](Cc1c[nH]c2ccccc12)C(=O)N[C@@H](CC(C)C)C(=O)N[C@H](C(=O)N[C@@H](CCCCN)C(=O)NCC(=O)N[C@@H](CCCNC(=N)N)C(=O)NCC(=O)O)C(C)C [Compound 2]
- EC50 (mouse GLP-1 receptor): 1.5 nM
- half-life in the chymotrypsin degradation test compared to native peptide (chymotrypsin): longer half-life
- stability (half-life) with leucyl aminopeptidase compared to native peptides [2]: more stable than the native peptides
- stability with carboxipeptidase A compared to native peptides [1]: same results
